Patent US20240139185A1, “COMPOUNDS THAT PARTICIPATE IN COOPERATIVE BINDING AND USES THEREOF” (Revolution Medicines, Inc., priority 2018, published 2024)

Sequences of proteins named here, by UniProt entry; tags and fusion partners are left off.
UniProt P62937, whole entry: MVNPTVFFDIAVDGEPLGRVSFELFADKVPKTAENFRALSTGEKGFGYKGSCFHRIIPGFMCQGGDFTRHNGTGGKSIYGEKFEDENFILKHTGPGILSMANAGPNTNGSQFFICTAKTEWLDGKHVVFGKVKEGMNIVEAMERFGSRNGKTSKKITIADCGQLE

Legend:
pERK in H358 cells = assay: pERK inhibition in H358 cells; details: read-out: Cellular pERK inhibition, 4 hours treatment
Protocol: H358 cells (5500 cells) derived from a human lung cancer were plated in a 96 well plate in media (100 uL, RPMI with 10% FBS). After 24 hours, cells were treated for 4 hours with compound or DMSO. Cells were washed twice with room temperature TBS (200 uL) and fixed for 20 minutes with 4% paraformaldehyde diluted with TBS (150 uL). Cells were washed four times for five minutes with 0.1% TritonX/TBS (150 uL) to permeabilize the membrane. Cells were incubated with TBS blocking buffer (100 uL) at room temperature for 60 minutes. Primary antibody (Phospho-p44/42 MAPK (Erk1/2) (Thr202/Tyr204) (D13.14.4E) XP® Rabbit mAb #4370, Cell Signaling Technology; 1:200) was added, and the cells were incubated overnight at 4 C. The cells were washed four times for five minutes with 0.1% Tween 20/TBS (150 uL). Secondary antibody (IRDye® 800CW Goat-Anti-Rabbit IgG, Li-Cor Biosciences; 1:1000) and DRAQ5™ (Invitrogen; 1:2000) was added, and the cells were incubated for 1 hour at room temperature. The cells were washed four times for five minutes with 0.1% Tween 20/TBS (150 uL) and scanned using the LICOR (700 and 800 nm).

cyclophilin A (CYPA) = cyclophilin A (CYPA) (Homo sapiens, UniProt P62937); assay: CYPA-compound binary complex formation by SPR; details: read-out: CYPA Binding Affinity
Protocol: In order to determine the affinity of compounds of the invention for cyclophilin A (CYPA), we employed surface plasmon resonance binding analysis using the following reagents, instruments and protocol as supplied by the instrument manufacturer.
Reagents and Instrument • 1. Instrument: Biacore S200 (GE Healthcare Life Sciences) • 2. Running buffer: 1×HBS-P+ (1×HBS supplemented with 0.05% Tween20), pH7.4, and 2% DMSO. • 3. Ligand: CypA-Avi • 4. Analyte: Serial dilution of WDB compounds from 50 μM to 0 μM, 2-fold dilution, 10 points (10 mM stock concentration). • 5. Sensor kit: Biotin CAPture Kit (BR28-9202-34, GE Healthcare Life Sciences) • 6. Regeneration buffer: 1 volume of 1 M NaOH and 3 volumes of 8 M guanidine hydrochloride (supplied with CAPture Kit, BR28-9202-34, GE Healthcare Life Sciences)
Experimental Procedure • 1. Capture of CAPreagent: 2 μl/min for 60 seconds. • 2. Immobilization of ligand CypA: Use Fc1 as the reference cell; immobilize CypA at 4 μg/ml using 5 μl/min flowrate on Fc2 (60s), Fc3 (80s) and Fc4 (80s), respectively. • 3. Binding of analytes: Inject WDB compound dilutions sequentially at 50 μl/min for association of 60 seconds. And then let it dissociates in buffer at 50 μl/min for 60 seconds. • 4. Regeneration: 2 injections of regeneration buffer at 30 μl/min for 60 seconds to regenerate the chip surface. • 5. […]

| IC50 (pERK in H358 cells) | Kd (cyclophilin A (CYPA)) | Compound |
| --- | --- | --- |
| > 10 µM |  | C=CC(=O)N1CC[C@H](C(=O)N(C)[C@H](C(=O)N[C@H]2Cc3cc(O)cc(c3)-c3ccc4c(c3)N(CC(C)(C)COC(=O)[C@@H]3CCCN(N3)C2=O)CC4(C)C#Cc2cccnc2)C(C)C)C1 (single isomer, unassigned) |
| 1 to 10 µM |  | C=CC(=O)N1CC[C@H](C(=O)N(C)[C@H](C(=O)N[C@H]2Cc3cc(O)cc(c3)-c3ccc4c(c3)N(CC(C)(C)COC(=O)[C@@H]3CCCN(N3)C2=O)CC4(C)COC)C(C)C)C1 (single isomer, unassigned) |
| > 10 µM |  | CC(C)[C@@H](C(=O)N[C@H]1Cc2cc(O)cc(c2)-c2ccc3c(C(C)(C)C#N)cn(c3c2)CC(C)(C)COC(=O)[C@@H]2CCCN(N2)C1=O)N1CCC2(CCCN(C(=O)CCl)C2)C1=O (single isomer, unassigned) |
| < 1 µM | < 5 µM | CC(C)[C@@H](C(=O)N[C@H]1Cc2cc(O)cc(c2)-c2ccc3c(C(C)(C)C#N)cn(c3c2)CC(C)(C)COC(=O)[C@@H]2CCCN(N2)C1=O)N1CCCC2(CCN(C(=O)CCl)C2)C1=O (single isomer, unassigned) |
